This series concerns HEp-2 cells.

Where only a bound is given, the exact number is not on record here.

By CC50 is commonly meant the concentration at which the toxic effect on the cells reaches its halfway point. As to “dextran sulfate sodium salt [DS-10000, reference compound]”, the CC50 is more than 50 µM.

These data come from PMC9643853, “Synthesis and evaluation of 3-alkynyl-5-aryl-7-aza-indoles as broad-spectrum antiviral agents” (Frontiers in Chemistry, 2022).
